The test system of the test is SW48-parental xenograft (HD PAR-006, KRAS WT). Kind of test: Tumor volume of SW48-parental xenograft in isogenic dual-xenograft mice. The conditions noted are these: Cetuximab 0.5 mg/mouse i.p. twice per week, 2 wks, vs saline. In kind it is in vivo, Nude mice. Here is the method: The SW48 series colorectal adenocarcinoma cells were obtained from Horizon Discovery Ltd (see below in Table 1 for Catalogue number details), and maintained in vitro as a monolayer culture in McCoy's 5A medium supplemented with 10% heat inactivated fetal bovine serum, 2 mM L-glutamine, with or without G418, at 37° C. in an atmosphere of 5% CO2 in air. The tumor cells were routinely subcultured every 3-5 days by trypsin-EDTA treatment. Cells growing in an exponential growth phase were harvested and counted for tumor inoculation. HD 103-002 cell line was derived from parental SW48 cell line HD PAR-006 with heterozygous knock-in of KRAS activating mutation-G13D; HD 103-007 cell line was derived from parental SW48 cell line HD PAR-006 with heterozygous knock-in of KRAS activating mutation-G12V. […]
The major endpoint was to evaluate the tumor growth. Tumor sizes were measured twice weekly in two dimensions using a caliper, and the volume were expressed in mm3 using the formula: V=0.5 a×b^2, where a and b are the long and short diameters of the tumor, respectively.

For the substance Cetuximab, the “effect on tumor volume of the SW48-parental xenograft (FIG. 2A)” value (dual model with SW48-KRAS (G12V/+)) is “reduced”. In addition, under “dual model with SW48-KRAS (G13D/+)”, the “effect on tumor volume of the SW48-parental xenograft (FIG. 1A)” value is reported as “significantly reduced”.
